# Ab-14 light chain CDR variants: yeast mating affinities

The target is the same throughout: PDVDLGDISGINAS, from the HR2 region of SARS-CoV-2 spike.

Ab-14 is the parent antibody, in scFv form: VH, then a (GGGGS)3 linker, then VL. The heavy chain is unchanged in all variants.
VH: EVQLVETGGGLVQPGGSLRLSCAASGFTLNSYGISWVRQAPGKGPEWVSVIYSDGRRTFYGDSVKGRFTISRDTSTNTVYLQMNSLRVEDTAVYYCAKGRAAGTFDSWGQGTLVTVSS
VL: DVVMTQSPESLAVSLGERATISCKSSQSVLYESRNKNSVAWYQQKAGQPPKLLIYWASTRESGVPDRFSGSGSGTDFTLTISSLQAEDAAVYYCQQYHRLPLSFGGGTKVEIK

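AAYL50 was designed without a model: most single CDR substitutions and a random sample of double and triple ones. In AlphaSeq, yeast of one mating type display the scFv and yeast of the other type display the target. Mating (16 h, 30 °C) was followed by selection of diploids and sequencing of their barcodes. The ratio of observed to expected reads was calibrated, replicate by replicate, on BCL2-family standards whose Kd was known from biolayer interferometry. There are three technical replicates.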

Substitutions are numbered in sequence along the VL above, starting at 1 (not Kabat).
Affinities are written as log10 Kd with Kd in nM; a lower number is a better binder.
The mean shown is taken over the replicates in which the pair was detected.
"ND" means that the variant was in the library but no mating with the target was seen in that replicate; the authors take this as a sign of poor binding, and no number exists.
Nonspecific signal, from three strains lacking the peptide, appeared in 18% of pairings of library AAYL50, centred on 4.19 (5% of these signals below 2.99); values are not corrected for it. Also given: how often the same scFv was detected with the empty control strains, with their mean in brackets.

changes	replicates, log10 nM	log10 Kd (nM), mean	empty controls
S26M/E32L/N35L	ND ND 3.09	3.09	2/9 (4.14)
L30S/E32Y/V39G	6.05 4.49 ND	5.27	4/9 (4.04)
V29W	5.79 4.32 ND	5.06	1/9 (2.93)
Q27N/S28I/T59C	2.42 2.04 2.48	2.31	2/9 (3.90)
N37E/T59Y/L100Q	ND ND ND	ND	1/9 (3.66)
N37P/A57Y/H98M	ND ND ND	ND	0/9
S25H/Y31I/S58K	1.57 1.82 2.00	1.80	4/9 (4.18)
A57H/S58P/Y97K	ND 4.83 3.94	4.38	2/9 (3.45)
K24Y/S26T/R60I	4.15 2.84 3.60	3.53	1/9 (4.62)
T59I/H98C/S103A	1.92 2.17 1.62	1.91	1/9 (4.57)
S28Y/V29Y/W56F	1.97 1.95 2.24	2.05	0/9
V39P/S62L/L100K	4.44 4.56 5.35	4.78	6/9 (4.55)
S38C/R60P/Q96E	ND ND ND	ND	2/9 (3.77)
L30K/R34H/L102E	ND ND ND	ND	0/9
S25P/R34F/S38C	3.04 3.10 4.53	3.56	1/9 (3.42)
E32C/R34N/E61F	4.63 3.79 ND	4.21	3/9 (4.74)
Y31K/R99H/L102P	1.59 1.37 1.68	1.55	3/9 (3.38)
K24N/N35K/T59R	1.50 1.61 1.77	1.63	4/9 (3.81)
V29S/L30I/Q95F	ND ND ND	ND	1/9 (3.93)
Y31S/S38Q/S58L	ND ND ND	ND	0/9
S28T/S33G/N35K	0.69 1.01 1.03	0.91	1/9 (3.93)
Y31F/A40L/Q96C	ND ND ND	ND	0/9
K36P/S62F/L100K	ND ND ND	ND	1/9 (2.93)
S26E/S33M	2.53 2.53 2.35	2.47	1/9 (4.70)
S25Q/L30V/R99G	0.39 0.43 0.60	0.47	0/9
K24N/S25Q/N35H	1.42 1.35 1.34	1.37	2/9 (3.71)
K24P/Q27N/R99P	ND ND ND	ND	2/9 (4.18)
S33Y/V39H	ND ND ND	ND	0/9
S28V/V29M/N37E	1.39 1.28 1.37	1.35	2/9 (4.09)
L30Y/R34D/K36G	0.69 0.91 0.85	0.82	1/9 (4.06)
K36G/Q96E	3.60 4.14 ND	3.87	2/9 (3.02)
S58P/S62N/Y97E	ND 4.49 5.40	4.94	3/9 (4.63)
K36L/S38N/R60Y	ND 3.46 ND	3.46	0/9
Y31H/A40M/T59A	ND ND ND	ND	0/9
K24S/Q96P/L100S	4.69 ND 5.58	5.13	1/9 (4.11)
S33V/N35L/Q96N	ND ND 5.78	5.78	4/9 (3.52)
Q27H/R60F/E61W	ND ND ND	ND	0/9
A57E/Q96S	4.56 ND ND	4.56	1/9 (3.81)
S26K/R34I/A57N	ND ND ND	ND	0/9
E32H/V39I/R60A	3.57 2.74 3.20	3.17	0/9
S33Q/V39W/S58A	ND ND ND	ND	2/9 (4.06)
S25W	1.16 1.31 1.40	1.29	3/9 (4.22)
K36R/H98A/R99Y	1.02 1.39 0.76	1.06	0/9
S26Y/Y31L/S38N	2.62 2.35 2.33	2.43	1/9 (3.41)
S26A/Y97T/L100K	ND ND ND	ND	0/9
K24M/N37Q/E61I	ND 3.59 3.43	3.51	0/9
L100A	3.54 ND ND	3.54	3/9 (5.00)
Y31A/W56Q/Q96L	ND ND ND	ND	0/9
S26R/Q96A	ND ND 2.84	2.84	0/9

From the list, the first 4 with no signal in any replicate:

changes,"replicates, log10 nM","log10 Kd (nM), mean",empty controls
N37E/T59Y/L100Q,ND ND ND,ND,1/9 (3.66)
N37P/A57Y/H98M,ND ND ND,ND,0/9
S38C/R60P/Q96E,ND ND ND,ND,2/9 (3.77)
L30K/R34H/L102E,ND ND ND,ND,0/9

Source: Engelhart et al. 2022 (doi:10.1038/s41597-022-01779-4), MIT Lincoln Laboratory and A-Alpha Bio; data file from the FLAb repository.